Reference: ChEMBL document CHEMBL5036359, “Repositioning Food and Drug Administration-Approved Drugs for Inhibiting Biliverdin IXβ Reductase B as a Novel Thrombocytopenia Therapeutic Target” (J Med Chem, 2022)

Experiments:
[1] = biological target: T1, Flavin reductase (NADPH) (Homo sapiens) (UniProt P30043); assay: Binding affinity to human N-terminal His6-tagged and thrombin cleavage fused BLVRB expressed in Escherichia coli BL21 (DE3) assessed as change in enthalpy by isothermal titration calorimetry
T1 sequence (whole entry): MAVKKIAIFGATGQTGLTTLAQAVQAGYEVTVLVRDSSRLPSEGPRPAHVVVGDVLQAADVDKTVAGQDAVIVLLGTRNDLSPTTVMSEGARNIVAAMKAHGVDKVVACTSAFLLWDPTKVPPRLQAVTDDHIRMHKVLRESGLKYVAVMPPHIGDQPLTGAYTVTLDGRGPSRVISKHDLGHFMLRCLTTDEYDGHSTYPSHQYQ

[2] = biological target: T1, Flavin reductase (NADPH) (Homo sapiens); assay: Binding affinity to human N-terminal His6-tagged and thrombin cleavage fused BLVRB expressed in Escherichia coli BL21 (DE3) assessed as change in gibbs free energy by isothermal titration calorimetry

O=C(O)c1cc(/N=N/c2ccc(O)c(C(=O)O)c2)ccc1O
deltaH [1]: -9.79 kcal/mol | deltaG [2]: -9.79 kcal/mol
